Read-outs that look alike come from different tables or passages of the source.
Key:
[1] = test system: Huh7 cells; conditions: human
[2] = test system: Vero cells

Q: How did the “Huh7 cell viability (%)” value ([1]; 0.37 µM) turn out when `O=C(CCCN1CCC2(CC1)C(=O)NCN2c1ccccc1)c1ccc(F)cc1` [Spiperone] was run?
A: Its value is 97.22%.

Q: What does the source list for `CN(C)C(=O)C(CCN1CCC(O)(c2ccc(Cl)cc2)CC1)(c1ccccc1)c1ccccc1` [Loperamide]?
A: Huh7 cell viability (%) ([1]; 0.37 µM): 96.82%; Huh7 cell viability (%) ([1]; 1.111 µM): 96.17%

Q: How did the “Cell viability (%)” value ([2]; 1.25 μM) turn out when `O=C(CCCN1CCC2(CC1)C(=O)NCN2c1ccccc1)c1ccc(F)cc1` [Spipe-rone] was run?
A: The value was 101.99%.

Q: What about the “Cell viability (%)” value ([2]; 20 μM) of the same molecule?
A: Its value is 101.53%.

Q: `CN(C)C(=O)C(CCN1CCC(O)(c2ccc(Cl)cc2)CC1)(c1ccccc1)c1ccccc1` [Lopera-mide] was tested. Which “Cell viability (%)” value ([2]; African green monkey, 20 µM) did it give?
A: The value was 101.82%.
